Laboratory results published in patent US9689040B2, “Selective inhibitors of tumor-initiating cells” (Children's Medical Center Corporation, priority 2011, dated 2017).

Legend:
[1] = test system: BPLER and HMLER cells; test: Mitochondrial membrane depolarization (DilC1(5) staining, flow cytometry); details: 12.5 nM, 18 hours
[2] = test system: 4T1-E and HCC-1143 cells; test: Colony assay and tumorigenicity assay after in vitro treatment; details: 18-hour treatment (12.5 nM), 2 weeks drug-free, orthotopic injection in Balb/c mice
[3] = test system: BPE, HMLER and BPLER cells; test: Cell cycle distribution (propidium iodide DNA staining); details: 24 hours

SMILES: CC(C)C[C@H](NC(=O)[C@H](Cc1ccccc1)NC(=O)c1cnccn1)B(O)O [bortezomib]
- mitochondrial membrane depolarization [1]: induced mithocondrial membrane depolarization in BPLER but not HMLER
- colony formation and tumor initiation by viable cells persisting after treatment [2]: neither formed colonies in vitro after 2 weeks, nor were able to initiate tumors in vivo
- cell cycle distribution [3]: marked accumulation of cells in G2/M phase
